Assay results: patent publication EP4592322A1 (Chuang, Woei-jer, dated 2025)

Target: integrin alpha(IIb)beta(3) (UniProt P08514 32-1039; P05106 27-788)
Assay: cell-based or functional assay

Binder | IC50: platelet aggregation [nM] | Ratio (RR/corresponding protein) of IC50 for platelet aggregation
TNK-(PA)5-RR (other) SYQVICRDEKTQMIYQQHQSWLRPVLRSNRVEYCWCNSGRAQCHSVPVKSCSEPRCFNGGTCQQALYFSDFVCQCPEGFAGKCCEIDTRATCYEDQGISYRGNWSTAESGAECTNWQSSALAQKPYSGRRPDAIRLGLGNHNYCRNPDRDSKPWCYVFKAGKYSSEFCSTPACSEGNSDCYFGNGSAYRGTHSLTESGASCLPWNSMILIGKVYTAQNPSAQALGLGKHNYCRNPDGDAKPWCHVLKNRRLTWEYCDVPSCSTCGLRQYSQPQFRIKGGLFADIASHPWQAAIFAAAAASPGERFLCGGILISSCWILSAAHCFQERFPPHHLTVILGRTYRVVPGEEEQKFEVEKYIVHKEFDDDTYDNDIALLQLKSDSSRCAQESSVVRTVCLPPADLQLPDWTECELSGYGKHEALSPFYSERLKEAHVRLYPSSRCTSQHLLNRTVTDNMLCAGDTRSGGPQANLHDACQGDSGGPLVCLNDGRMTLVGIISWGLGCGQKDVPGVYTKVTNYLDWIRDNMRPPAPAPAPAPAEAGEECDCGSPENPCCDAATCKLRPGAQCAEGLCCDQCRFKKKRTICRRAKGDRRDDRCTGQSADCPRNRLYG | 380 | 0.138 ratio (RR/corresponding protein)
TNK-(PA)7-RR (other) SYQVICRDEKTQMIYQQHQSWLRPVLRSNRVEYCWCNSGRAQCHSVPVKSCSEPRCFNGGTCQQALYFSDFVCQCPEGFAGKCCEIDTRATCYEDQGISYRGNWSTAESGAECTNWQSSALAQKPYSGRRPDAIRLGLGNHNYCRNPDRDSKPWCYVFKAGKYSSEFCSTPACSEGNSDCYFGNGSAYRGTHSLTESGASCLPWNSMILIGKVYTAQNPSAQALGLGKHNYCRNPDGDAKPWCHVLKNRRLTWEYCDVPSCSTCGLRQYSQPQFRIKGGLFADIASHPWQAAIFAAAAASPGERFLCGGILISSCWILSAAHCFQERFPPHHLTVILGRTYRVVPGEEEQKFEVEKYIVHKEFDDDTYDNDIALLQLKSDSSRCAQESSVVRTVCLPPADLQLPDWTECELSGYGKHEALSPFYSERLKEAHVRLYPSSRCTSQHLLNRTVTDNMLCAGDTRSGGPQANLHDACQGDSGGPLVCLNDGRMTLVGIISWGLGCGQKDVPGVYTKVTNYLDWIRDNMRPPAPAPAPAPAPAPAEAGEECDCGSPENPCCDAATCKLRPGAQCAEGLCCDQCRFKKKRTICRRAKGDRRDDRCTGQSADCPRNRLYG | 347 | 0.151 ratio (RR/corresponding protein)
TNK-EA3K(G4S)2-RR (other) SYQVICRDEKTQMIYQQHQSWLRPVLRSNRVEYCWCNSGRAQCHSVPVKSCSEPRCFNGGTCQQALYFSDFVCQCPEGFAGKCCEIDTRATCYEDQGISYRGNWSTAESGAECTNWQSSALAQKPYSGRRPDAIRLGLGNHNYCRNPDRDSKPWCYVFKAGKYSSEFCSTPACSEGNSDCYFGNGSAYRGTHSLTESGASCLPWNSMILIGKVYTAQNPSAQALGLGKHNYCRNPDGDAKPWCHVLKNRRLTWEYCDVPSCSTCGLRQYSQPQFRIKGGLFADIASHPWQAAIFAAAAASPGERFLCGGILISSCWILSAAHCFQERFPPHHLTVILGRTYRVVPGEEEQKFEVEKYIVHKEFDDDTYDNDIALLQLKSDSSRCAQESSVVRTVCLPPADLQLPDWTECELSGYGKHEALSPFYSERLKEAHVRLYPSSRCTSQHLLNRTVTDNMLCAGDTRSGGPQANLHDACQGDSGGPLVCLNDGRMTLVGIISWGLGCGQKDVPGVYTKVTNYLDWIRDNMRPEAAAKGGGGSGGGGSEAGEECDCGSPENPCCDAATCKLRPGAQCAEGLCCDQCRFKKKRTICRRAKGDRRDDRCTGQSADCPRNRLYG | 276 | 0.191 ratio (RR/corresponding protein)
TNK-(EA3K)3-RR (other) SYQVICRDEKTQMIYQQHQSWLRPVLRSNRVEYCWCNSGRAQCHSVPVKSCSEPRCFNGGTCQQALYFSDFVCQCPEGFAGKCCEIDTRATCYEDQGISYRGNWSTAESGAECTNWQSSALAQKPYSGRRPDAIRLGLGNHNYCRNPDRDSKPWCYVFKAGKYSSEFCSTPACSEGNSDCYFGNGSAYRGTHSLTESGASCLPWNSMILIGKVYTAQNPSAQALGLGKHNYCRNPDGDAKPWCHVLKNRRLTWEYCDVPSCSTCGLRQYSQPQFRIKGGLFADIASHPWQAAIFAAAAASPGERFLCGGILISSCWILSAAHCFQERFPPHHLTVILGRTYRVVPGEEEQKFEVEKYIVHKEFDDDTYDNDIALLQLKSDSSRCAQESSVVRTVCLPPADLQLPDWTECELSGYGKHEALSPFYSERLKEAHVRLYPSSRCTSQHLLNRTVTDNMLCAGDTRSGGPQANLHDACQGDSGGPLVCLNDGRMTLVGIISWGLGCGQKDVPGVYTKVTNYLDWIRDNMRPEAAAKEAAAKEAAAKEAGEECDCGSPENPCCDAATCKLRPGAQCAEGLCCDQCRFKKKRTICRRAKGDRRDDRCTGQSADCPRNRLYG | 458 | 0.115 ratio (RR/corresponding protein)
RR-(PA)5-TNK (other) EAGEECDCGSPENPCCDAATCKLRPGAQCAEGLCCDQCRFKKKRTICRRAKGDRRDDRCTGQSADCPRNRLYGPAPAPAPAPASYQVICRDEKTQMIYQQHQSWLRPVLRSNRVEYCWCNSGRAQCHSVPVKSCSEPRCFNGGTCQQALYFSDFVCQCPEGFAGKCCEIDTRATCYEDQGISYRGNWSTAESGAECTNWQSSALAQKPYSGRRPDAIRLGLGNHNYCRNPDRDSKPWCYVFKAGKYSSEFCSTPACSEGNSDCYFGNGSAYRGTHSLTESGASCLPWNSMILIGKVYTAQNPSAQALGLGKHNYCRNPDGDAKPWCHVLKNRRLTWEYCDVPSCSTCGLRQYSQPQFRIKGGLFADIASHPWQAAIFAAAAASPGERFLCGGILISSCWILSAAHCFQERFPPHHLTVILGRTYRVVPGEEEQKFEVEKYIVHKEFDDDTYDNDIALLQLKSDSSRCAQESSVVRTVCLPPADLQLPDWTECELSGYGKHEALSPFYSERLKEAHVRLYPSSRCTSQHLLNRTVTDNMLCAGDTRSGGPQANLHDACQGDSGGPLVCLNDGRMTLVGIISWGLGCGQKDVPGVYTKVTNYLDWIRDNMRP | 1370 | 0.0383 ratio (RR/corresponding protein)
TNK-G9-RR (other) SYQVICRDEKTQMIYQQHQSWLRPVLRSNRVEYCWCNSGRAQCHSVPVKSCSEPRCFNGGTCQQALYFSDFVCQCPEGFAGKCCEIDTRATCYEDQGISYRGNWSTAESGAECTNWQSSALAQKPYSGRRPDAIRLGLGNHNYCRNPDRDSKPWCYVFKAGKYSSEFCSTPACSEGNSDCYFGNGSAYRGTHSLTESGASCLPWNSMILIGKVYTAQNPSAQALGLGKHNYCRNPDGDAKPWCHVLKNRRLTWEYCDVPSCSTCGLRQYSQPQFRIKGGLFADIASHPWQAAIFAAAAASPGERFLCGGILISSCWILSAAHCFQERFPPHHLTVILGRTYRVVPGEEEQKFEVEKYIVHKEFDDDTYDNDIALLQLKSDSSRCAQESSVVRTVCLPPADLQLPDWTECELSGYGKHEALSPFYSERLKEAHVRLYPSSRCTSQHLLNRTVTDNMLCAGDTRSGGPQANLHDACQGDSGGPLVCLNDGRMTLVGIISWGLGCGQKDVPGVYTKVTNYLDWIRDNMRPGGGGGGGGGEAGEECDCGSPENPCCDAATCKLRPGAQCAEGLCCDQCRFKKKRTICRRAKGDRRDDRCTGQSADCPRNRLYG | 567 | 
TNK-(G4S)3-RR (other) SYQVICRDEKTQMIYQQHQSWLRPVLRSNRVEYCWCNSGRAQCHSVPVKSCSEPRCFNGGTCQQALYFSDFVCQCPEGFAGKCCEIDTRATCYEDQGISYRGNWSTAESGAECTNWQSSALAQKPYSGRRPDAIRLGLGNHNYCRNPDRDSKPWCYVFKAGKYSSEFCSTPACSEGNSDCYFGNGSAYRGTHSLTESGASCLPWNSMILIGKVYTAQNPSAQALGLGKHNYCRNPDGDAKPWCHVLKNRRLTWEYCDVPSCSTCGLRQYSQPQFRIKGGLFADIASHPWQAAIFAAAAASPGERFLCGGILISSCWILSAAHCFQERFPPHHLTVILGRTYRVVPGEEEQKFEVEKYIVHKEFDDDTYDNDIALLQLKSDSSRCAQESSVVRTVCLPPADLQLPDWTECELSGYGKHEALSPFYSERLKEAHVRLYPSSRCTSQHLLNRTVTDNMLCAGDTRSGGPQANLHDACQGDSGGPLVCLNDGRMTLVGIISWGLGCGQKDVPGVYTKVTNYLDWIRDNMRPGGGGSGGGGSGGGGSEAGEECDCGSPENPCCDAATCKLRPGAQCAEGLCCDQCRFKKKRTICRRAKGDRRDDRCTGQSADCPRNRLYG | 249 | 0.21 ratio (RR/corresponding protein)
TNK-(PA)3-RR (other) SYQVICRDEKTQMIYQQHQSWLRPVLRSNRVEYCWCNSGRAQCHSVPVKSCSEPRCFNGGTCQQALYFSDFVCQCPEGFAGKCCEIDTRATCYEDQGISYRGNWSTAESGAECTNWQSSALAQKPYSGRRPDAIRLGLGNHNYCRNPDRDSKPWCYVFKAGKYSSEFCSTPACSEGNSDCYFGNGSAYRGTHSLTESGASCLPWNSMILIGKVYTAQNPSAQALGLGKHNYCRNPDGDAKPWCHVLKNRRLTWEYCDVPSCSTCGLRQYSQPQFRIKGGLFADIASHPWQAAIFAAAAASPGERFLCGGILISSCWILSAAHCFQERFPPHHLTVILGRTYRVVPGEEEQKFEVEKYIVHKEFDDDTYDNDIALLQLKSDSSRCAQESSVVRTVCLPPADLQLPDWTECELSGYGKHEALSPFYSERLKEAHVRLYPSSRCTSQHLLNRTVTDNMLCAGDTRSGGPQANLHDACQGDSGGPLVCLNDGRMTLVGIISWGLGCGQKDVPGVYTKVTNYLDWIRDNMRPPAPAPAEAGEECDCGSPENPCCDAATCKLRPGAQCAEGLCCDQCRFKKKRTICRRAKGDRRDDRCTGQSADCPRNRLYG | 506 | 0.104 ratio (RR/corresponding protein)
